Data: ChEMBL document CHEMBL1154855 (Eur J Med Chem, 2010)

Tested on: Human immunodeficiency virus 2
Assay: Antiviral activity against HIV2 ROD infected in human MT4 cells assessed as protection from virus-induced cytopathogenicity after 5 days by MTT assay
Format: functional, organism-based
Conditions: Human immunodeficiency virus 2, ISOLATE ROD, MT4, 120 h
How it was run: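 MT-4 cells at 3 × 10^4 per well were infected with HIV (IIIB or ROD) at 50% cell culture infective doses. Graded compound concentrations were added immediately after infection. Plates were incubated for 5 days at 37 °C and viable cells were counted by MTT.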

## COc1cc(/C=C/C(=O)CC(=O)/C=C/c2ccc(O)c(OC)c2)ccc1O [CURCUMIN]
  IC50: 37 nM
